Test system: pDV6 plants expressing both glyphosate resistance genes and GST
Experiment: Pre-em/post-em herbicide treatment of DV6 plants (Table 1)
Type: in vivo, Tobacco
Conditions: pDV6 #71

Q: How did the “% Phytotoxicity (mean, 21 DAT)” value (pre-em rate 200, then post-em Glyphosate 800 g/ha) turn out when `O=c1nn[nH][nH]1` was run?
A: The value was 0%.

Q: What about the “% Phytotoxicity (mean, 21 DAT)” value (pre-em rate 200, no post-em treatment) of the same compound?
A: Its value is 0%.

— patent publication US20030041357A1, “Herbicide resistant plants” (priority 1996, published 2003)
